This test concerns the target T1, MT1-MMP Hemopexin domain (PEX) (UniProt P50281 319-511).
T1 construct: domain: Hemopexin domain (PEX); Target of the fluorescence polarisation assays; also called hemopexin of MT1-MMP; MMP14
Put plainly: FP competition vs tracer 17-88-N006. As to the method: Subsequently, the non-fluorescent competitor bicyclic peptide (usually just the bicycle core sequence) is titrated, such that it displaces the fluorescent tracer from the target protein. The displacement of the tracer is measured and associated with a drop in fluorescence polarisation. The drop in fluorescence polarisation is proportional to the fraction of target protein bound with the non-fluorescent titrant, and thus is a measure of the affinity of titrant to target protein.
The raw data is fit to the analytical solution of the cubic equation that describes the equilibria between fluorescent tracer, titrant, and binding protein. The fit requires the value of the affinity of fluorescent tracer to the target protein, which can be determined separately by direct binding FP experiments (see previous section).

B1: 17-120-09-T02 (peptide)
peptide: QISPCVRECALLFPKTCA
modifications: 3 Cys linked to TATA scaffold
As a reminder, the Kd is the constant that tells how readily two partners part at equilibrium. The low end stands for tighter binding, the high end for weaker binding. B1 came in with a Kd of 55.2 nM.

B2: 17-120-29-T01 (peptide)
peptide: AVPPCVQECALLFPKTCA
modifications: 3 Cys linked to TATA scaffold
Take B2: the equilibrium dissociation constant (Kd) was found to be 162 nM.

B3: 17-120-26-T01 (peptide)
peptide: ASPPCLTECALLFPKTCA
modifications: 3 Cys linked to TATA scaffold
For the molecule B3, the affinity, expressed as Kd, was 598 nM.

B4: 17-120-22-T02 (peptide)
peptide: PLPPCVRECRLLFPKTCA
modifications: 3 Cys linked to TATA scaffold
For B4, the equilibrium dissociation constant (Kd) was determined as 46.1 nM.

B5: 17-120-16-T01 (peptide)
peptide: ARHPCINECRLLFPKTCA
modifications: 3 Cys linked to TATA scaffold
B5 yielded a dissociation constant (Kd) of 74.4 nM.

B6: 17-120-24-T01 (peptide)
peptide: AVEPCKRECMLLFPKTCA
modifications: 3 Cys linked to TATA scaffold
Consider B6, for which the affinity, expressed as Kd, was 126 nM.

B7: 17-120-19 (peptide)
peptide: ACLEECKLLFPKTCA
modifications: 3 Cys linked to TATA scaffold
In the case of B7, the affinity, expressed as Kd, was 303 nM.

B8: 17-120-07 (peptide)
peptide: ACDVECRLLFPRSCA
modifications: 3 Cys linked to TATA scaffold
In turn, B8 returned a Kd of 273 nM.

B9: 17-120-03 (peptide)
peptide: ACREECMLLFPKTCA
modifications: 3 Cys linked to TATA scaffold
In turn, B9 displayed a Kd of 604 nM.

B10: 17-120-18 (peptide)
peptide: ACHEECRLLFPKTCA
modifications: 3 Cys linked to TATA scaffold
Regarding B10, binding was put at a Kd of 252 nM.

B11: 17-120-04 (peptide)
peptide: ACETECALLFPRSCA
modifications: 3 Cys linked to TATA scaffold
On to B11, for which the dissociation constant (Kd) is 224 nM.

B12: 17-120-22-T01 (peptide)
peptide: APSPCVRECRLLFPKTCA
modifications: 3 Cys linked to TATA scaffold
In turn, B12 had a Kd of 62.4 nM.

B13: 17-120-28-T01 (peptide)
peptide: APPPCEAECRLLFPKTCA
modifications: 3 Cys linked to TATA scaffold
Molecule B13 registered a Kd of 192 nM.

B14: 17-120-13-T01 (peptide)
peptide: ALDPCVRECTLLFPKTCA
modifications: 3 Cys linked to TATA scaffold
B14 showed a dissociation constant Kd of 189 nM.

B15: 17-120-15-T01 (peptide)
peptide: ATQPCARECALLFPKTCA
modifications: 3 Cys linked to TATA scaffold
For the molecule B15, the Kd is 178 nM.

B16: 17-120-27-T01 (peptide)
peptide: AAPPCEVECRLLFPKTCA
modifications: 3 Cys linked to TATA scaffold
Regarding B16, the Kd is 394 nM.

B17: 17-120-20 (peptide)
peptide: ACIDECALLFPRTCA
modifications: 3 Cys linked to TATA scaffold
The molecule B17 displayed a dissociation constant Kd of 248 nM.

B18: 17-120-21-T01 (peptide)
peptide: APPPCYEECRLLFPRTCA
modifications: 3 Cys linked to TATA scaffold
For the molecule B18, the equilibrium dissociation constant (Kd) was 113 nM.

B19: 17-120-17-T01 (peptide)
peptide: ALPPCYTECSLLFPKTCA
modifications: 3 Cys linked to TATA scaffold
Turning to B19, the dissociation constant (Kd) was 157 nM.

B20: 17-120-25-T01 (peptide)
peptide: AEPACYRECALLFPKTCA
modifications: 3 Cys linked to TATA scaffold
B20 registered an equilibrium dissociation constant (Kd) of 194 nM.

B21: 17-120-23-T01 (peptide)
peptide: APAPCHIECALLFPKTCA
modifications: 3 Cys linked to TATA scaffold
Molecule B21 had a Kd of 127 nM.

B22: 17-120-12-T01 (peptide)
peptide: AALPCQRECALLFPKTCA
modifications: 3 Cys linked to TATA scaffold
B22 displayed a dissociation constant Kd of 183 nM.

B23: 17-120-08 (peptide)
peptide: ACIDECRLLFPRSCA
modifications: 3 Cys linked to TATA scaffold
In turn, B23 displayed a Kd of 258 nM.

B24: 17-120-11-T01 (peptide)
peptide: APSPCRHECELLFPKTCA
modifications: 3 Cys linked to TATA scaffold
Turning to B24, binding was put at a Kd of 612 nM.

B25: 17-120-10-T01 (peptide)
peptide: APMPCVTECQLLFPKTCA
modifications: 3 Cys linked to TATA scaffold
As to B25, the affinity, expressed as Kd, was 132 nM.

B26: 17-120-14-T01 (peptide)
peptide: ADRPCTIECALLFPKTCA
modifications: 3 Cys linked to TATA scaffold
B26 gave a Kd of 148 nM.

The values are drawn from patent US20220024982A1 (Bicycle, published 2022).
